# Binding of CDR-mutated scFvs to a peptide of the spike HR2 region

All variants were tested on one target, the spike HR2 peptide PDVDLGDISGINAS (SARS-CoV-2).

Parent: Ab-14, a human scFv built as VH, a (GGGGS)3 linker, VL. Only the CDRs of the light chain vary.
VH: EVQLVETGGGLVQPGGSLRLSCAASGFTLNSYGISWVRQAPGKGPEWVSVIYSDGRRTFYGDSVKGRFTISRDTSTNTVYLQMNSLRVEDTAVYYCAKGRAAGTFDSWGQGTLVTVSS
VL: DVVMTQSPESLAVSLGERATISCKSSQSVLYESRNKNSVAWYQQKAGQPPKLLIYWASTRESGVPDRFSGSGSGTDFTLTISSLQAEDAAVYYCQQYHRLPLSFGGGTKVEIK

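Phage display of a naive human antibody library on the peptide gave the parent. These sequences belong to a second round, designed from the earlier measurements on random variants of the parent. Group labels follow the data file (Ctrl: baseline library sampled from a position-specific scoring matrix, with some repeated check sequences; Rand: our label for a block that the file lists under HC and that is probably the random mutants of the ten best first-round binders; En: ensemble of fine-tuned language models; GP: Gaussian process model; HC: hill climbing; Gen: genetic algorithm; Gibbs: Gibbs sampling; a sequence that several methods proposed may carry one label only). In AlphaSeq, yeast of one mating type display the scFv and yeast of the other type display the target. Binding brings cells together so that they mate, and sequencing counts the barcode pairs among the diploids. Each replicate has its own calibration line, from reference interactions of the BCL2 family. Each pool was mated in six replicate cultures.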

Each variant is given by its three light chain CDRs, as the data file delimits them; those of the parent are KSSQSVLYESRNKNSVA, WASTRES, QQYHRLPLS.
Values are apparent Kd, the geometric mean of the replicates that gave a signal; lower means stronger binding.
"no signal" marks a missing value. The strain was present, yet no cells mated with the target were sequenced in any replicate, which points to weak or no binding.
Order: sorted from the lowest average up, undetected variants last.
Nonspecific signal, from three strains lacking the peptide, appeared in 4% of pairings of all light chain designs, centred on 430 nM (5% of these signals below 38 nM); values are not corrected for it.

CDR-L1,CDR-L2,CDR-L3,group,apparent Kd,replicates with signal
HSSPSVPYESRNKNSVA,NASTREE,QQYHRLPLS,GP_HC,71 pM,6 of 6
KLQQSELYEERNSNAVA,NASLREL,QQYHRLPLS,GP_Gibbs,410 pM,6 of 6
KLSQSYLYESRNKNAVA,NASTRES,QQYHRLPLS,GP_Gen,420 pM,6 of 6
KVSQSVLYESRNKNSVA,NASTRET,QQYHRLPLS,GP_HC,460 pM,6 of 6
KQSQSVLYESRNKNNVA,DASTRSS,QQYHRLPLS,GP_HC,530 pM,6 of 6
KLSQSDLYESRNKNSVA,GASTREQ,QQYHRLPLS,GP_Gen,610 pM,6 of 6
KFSQSVLYESRTKNGVA,NASTRES,QQYHRLPLS,Rand,660 pM,6 of 6
KLDQGTLYESRNKNSVA,GASTRES,QQYHRLPLS,GP_HC,770 pM,6 of 6
KYAQSDLYESRNFNNVA,AASTRES,QQYHRLPLS,GP_Gibbs,780 pM,6 of 6
QASQSFLYESRNKNSVA,GASTRES,QQYHRLPLS,GP_HC,790 pM,6 of 6
KLMGSMEYESRNKNAVA,EASHRES,QQYHRLPLS,GP_Gibbs,880 pM,6 of 6
KFSQSVPAEDRNKGSVA,SASKRES,QQYHRLPLS,Ctrl,880 pM,6 of 6
KLSQSFLYESRNKNSVA,GASTRES,QAYHRLPLS,GP_HC,990 pM,6 of 6
KLQQSVLYESRNKNSVA,GASTRES,QAYHRLPLS,GP_Gen,1.1 nM,6 of 6
LGNYEDQDDDRGMNNIA,NGDTKML,QQYHRLPLS,En_Gibbs,1.1 nM,6 of 6
KVSQSWLYESRNFWSVA,NASTRES,QQYHRLPLS,GP_HC,1.1 nM,6 of 6
KFSQSWLYESRTKNSVA,NASTRES,QQYHQLPLS,GP_HC,1.1 nM,6 of 6
KLEDSNRWNYRGTNAVA,QASTRAA,QQYQRLPFL,En_Gibbs,1.2 nM,6 of 6
NISQSVGMTSRNKNSVA,ENSTRED,QQYDRLPLS,En_HC,1.3 nM,1 of 6
KFSQSWLYESRNKNSVA,GASAREV,QQYHRLPLS,GP_HC,1.4 nM,6 of 6
KLSQSWLYESRNKNSVA,HASTREQ,QQYHRLPLS,GP_HC,1.6 nM,6 of 6
HITDLMYFNNEGEKNIA,DKNISVM,QQYFRLPLS,En_Gibbs,1.7 nM,6 of 6
MISDLTMYGSRNVNSVA,DLSTRGS,QQYFRLPLS,En_HC,1.8 nM,6 of 6
NVKAMLNMWARDIHNVA,EADERAS,QQYSRLPLG,En_Gibbs,2.0 nM,6 of 6
SVRHPFQGDNGRKASIA,NATIRDH,QQYFRLPLF,En_Gibbs,2.2 nM,6 of 6
KSSQSVLYESRNKNSVA,AASTRES,QQYCRLPLS,Ctrl,2.4 nM,6 of 6
KQQGGQDYESRNDNSVA,DASTRES,QQYHRLPLS,GP_Gibbs,2.5 nM,6 of 6
KLRQSTLYESRNKNSVA,HASTRLS,QQYHRLPLS,GP_HC,3.3 nM,6 of 6
MMSQVTGLGQRQRNNVA,QTSTREP,QQYDRLPLI,En_Gen,3.7 nM,6 of 6
KISQSVLYESMNVNSVA,WASTRES,QQYHRLPLS,Ctrl,4.4 nM,6 of 6

Further variants, results first:

apparent Kd,replicates with signal,CDR-L1,CDR-L2,CDR-L3,group
4.9 nM,6 of 6,KSSQSVLYESNNKNSVA,WGSTRES,QQYHRLPLS,Ctrl
7.2 nM,6 of 6,MMSQVTGLGTRHRNNVA,QTSTRED,QQYDRLPLV,En_Gen
7.3 nM,6 of 6,MFSQSVMLGSFTRNSVA,QTSTRES,QQYDRLPLS,En_HC
8.7 nM,6 of 6,KISMVVENELKNRNSVA,ELVTRMA,QQYNRLPLS,En_Gen
11 nM,6 of 6,KLTNITGTEKVIGNNVA,EMETREK,QQYNRLPLS,En_Gen
11 nM,6 of 6,KLAMYMEMNARTNHHIA,EANLKPS,QQYNRLPFS,En_Gibbs
13 nM,6 of 6,KLLQNVMTEGRMRNNVA,HMDMRED,QQYWRLPLS,En_HC
19 nM,3 of 6,KLYMSTGYESRNKDSIA,DNSTRGR,QQYDRLPLS,En_HC
22 nM,6 of 6,KSSQSFLYESRNKNSVA,EASTRES,QAYHRLPLS,GP_HC
29 nM,6 of 6,MVGQGLMGESRAKNSIA,QASLRFD,QQYHRLPLI,En_HC
37 nM,3 of 6,SFTIEMLQQQEQYNSVA,GEQKTVD,QQYGRLPLS,En_Gibbs
38 nM,6 of 6,KLVGVDDNDNNPMHAIA,DVSTLDN,QQYHRLPLD,En_Gibbs
38 nM,6 of 6,KSLQSVLYESRNKNSVA,HASTREQ,QQYHRLPLS,GP_HC
39 nM,1 of 6,KSWQSVLYESRNKNSVA,WASTRES,QQYHRLPLS,Ctrl
44 nM,4 of 6,TISALYNQATGMRNNVA,NNQTRED,QQYKRLPLS,En_Gen
45 nM,6 of 6,KSEQSVLYESRNKNSVA,DDSTRES,QQYHRLPLS,Ctrl
57 nM,2 of 6,KLSQGTYGLTQSDSNVA,HDEMRWA,QQYDKLPLI,En_Gibbs
67 nM,5 of 6,KLRQSELYESRNKFSVA,WASTRES,QQYHRLPLS,Rand
77 nM,3 of 6,KFSQSVLYESRNKNSVA,WASTRES,QDYHRLPLS,Ctrl
99 nM,6 of 6,KFSTSRLNESRNKNSVA,WASTRHS,QQYHRLPLS,Ctrl
140 nM,3 of 6,IVSQLMIWGTHVKNSIA,EAQTRVN,QQYDRLPLI,En_Gen
150 nM,6 of 6,SIGLATMLEEYARNSVA,NNSTRES,QQYDRLPLS,En_Gen
210 nM,6 of 6,MISQLWNMGTFAINSVA,QATIRNS,QQYDRLPLM,En_Gen
210 nM,1 of 6,MIYGANRELGLAANSIA,DNVTRYQ,QQYERLPLS,En_Gen
650 nM,5 of 6,KISQMYRYEQQNSSSIA,EVSMRLN,QSYHRLPLS,En_HC
900 nM,3 of 6,KSSQSVLMECRNKNSVA,WASTRES,QQYHRLPLS,Ctrl
2.3 µM,1 of 6,HLSHMSGVESVKHNSVA,ENSTREQ,QQYDRLPLA,En_Gen
no signal,0 of 6,KSSQSVLYESRNKNSVA,WASTRES,QQYPRLPLS,Ctrl
no signal,0 of 6,QVFFQLFEQQNRSNPIA,HESMRET,QQYAYLPLT,En_Gibbs
no signal,0 of 6,HIYQSVGMTSRNKNSVA,ENSTRED,QQYDRLPLS,En_HC
no signal,0 of 6,KDYQSRLYESRNKNSVA,WASTRES,QQYHRLPLS,Ctrl

The opening 5 entries, copied out:

CDR-L1,CDR-L2,CDR-L3,group,apparent Kd,replicates with signal
HSSPSVPYESRNKNSVA,NASTREE,QQYHRLPLS,GP_HC,71 pM,6 of 6
KLQQSELYEERNSNAVA,NASLREL,QQYHRLPLS,GP_Gibbs,410 pM,6 of 6
KLSQSYLYESRNKNAVA,NASTRES,QQYHRLPLS,GP_Gen,420 pM,6 of 6
KVSQSVLYESRNKNSVA,NASTRET,QQYHRLPLS,GP_HC,460 pM,6 of 6
KQSQSVLYESRNKNNVA,DASTRSS,QQYHRLPLS,GP_HC,530 pM,6 of 6

The authors averaged sequences with at least three values out of six and counted those with two or fewer as poor binders.
A sequence measured in both rounds can read differently, since the two assays cover different ranges.

The measurements come from Li et al. 2023 (doi:10.1038/s41467-023-39022-2) through the FLAb antibody collection.